Assay [1] has as its target T1, Glutamate NMDA receptor; GRIN1/GRIN2A (Homo sapiens, UniProt Q05586+Q12879). Description: Positive allosteric modulation of GluN1/GluN2A receptor (unknown origin) expressed in CHO cells assessed as increase in glutamate-induced calcium flux at 125 uM measured at time interval of 5 mins in presence of saturating glycine by calcium dye-based fluorescence assay relative to glutamate. It is filed as cell-based. For orientation: A change in cytosolic calcium serves as a functional read-out for many receptors and channels.

Chains of the proteins cited; added tags and fusions are not shown. Lines headed by an entry give the natural chain unless they say otherwise; changes in a name come on top.
UniProt Q12879, whole entry, looked up: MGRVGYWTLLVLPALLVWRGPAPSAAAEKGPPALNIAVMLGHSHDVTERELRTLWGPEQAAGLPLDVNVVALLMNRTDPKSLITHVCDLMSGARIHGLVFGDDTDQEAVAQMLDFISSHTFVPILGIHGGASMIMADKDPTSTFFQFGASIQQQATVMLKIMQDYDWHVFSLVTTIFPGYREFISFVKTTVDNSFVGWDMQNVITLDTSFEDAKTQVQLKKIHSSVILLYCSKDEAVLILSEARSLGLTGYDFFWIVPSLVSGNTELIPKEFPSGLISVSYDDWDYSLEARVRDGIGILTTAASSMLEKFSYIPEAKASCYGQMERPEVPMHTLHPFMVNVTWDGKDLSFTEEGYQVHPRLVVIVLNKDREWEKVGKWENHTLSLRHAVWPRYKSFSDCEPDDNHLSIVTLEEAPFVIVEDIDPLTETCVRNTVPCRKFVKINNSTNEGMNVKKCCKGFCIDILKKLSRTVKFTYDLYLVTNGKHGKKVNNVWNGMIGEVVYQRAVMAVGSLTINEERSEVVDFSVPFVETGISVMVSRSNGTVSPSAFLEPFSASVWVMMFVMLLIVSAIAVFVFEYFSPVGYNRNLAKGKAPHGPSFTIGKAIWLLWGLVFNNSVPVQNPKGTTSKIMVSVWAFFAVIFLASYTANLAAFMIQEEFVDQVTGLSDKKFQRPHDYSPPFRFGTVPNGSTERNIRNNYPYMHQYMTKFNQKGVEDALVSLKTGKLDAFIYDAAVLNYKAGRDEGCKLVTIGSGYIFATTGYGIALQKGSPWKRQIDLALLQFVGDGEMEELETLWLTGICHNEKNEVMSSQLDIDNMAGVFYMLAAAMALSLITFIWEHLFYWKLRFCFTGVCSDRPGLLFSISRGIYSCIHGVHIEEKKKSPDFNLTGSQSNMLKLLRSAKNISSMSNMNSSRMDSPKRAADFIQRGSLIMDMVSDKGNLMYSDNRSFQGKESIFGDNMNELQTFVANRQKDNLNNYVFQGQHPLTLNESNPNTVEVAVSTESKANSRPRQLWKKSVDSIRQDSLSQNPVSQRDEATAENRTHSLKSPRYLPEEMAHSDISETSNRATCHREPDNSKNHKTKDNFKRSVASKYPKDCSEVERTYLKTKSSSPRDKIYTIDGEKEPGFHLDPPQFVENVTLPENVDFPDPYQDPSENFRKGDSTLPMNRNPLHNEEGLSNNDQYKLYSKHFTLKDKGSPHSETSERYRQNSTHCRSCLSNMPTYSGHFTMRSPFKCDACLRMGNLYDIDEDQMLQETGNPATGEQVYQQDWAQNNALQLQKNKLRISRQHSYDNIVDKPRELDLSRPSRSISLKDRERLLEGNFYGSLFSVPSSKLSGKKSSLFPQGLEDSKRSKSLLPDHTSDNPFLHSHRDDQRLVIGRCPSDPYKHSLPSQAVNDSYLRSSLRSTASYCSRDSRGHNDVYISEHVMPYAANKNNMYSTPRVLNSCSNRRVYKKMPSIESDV
UniProt Q14957: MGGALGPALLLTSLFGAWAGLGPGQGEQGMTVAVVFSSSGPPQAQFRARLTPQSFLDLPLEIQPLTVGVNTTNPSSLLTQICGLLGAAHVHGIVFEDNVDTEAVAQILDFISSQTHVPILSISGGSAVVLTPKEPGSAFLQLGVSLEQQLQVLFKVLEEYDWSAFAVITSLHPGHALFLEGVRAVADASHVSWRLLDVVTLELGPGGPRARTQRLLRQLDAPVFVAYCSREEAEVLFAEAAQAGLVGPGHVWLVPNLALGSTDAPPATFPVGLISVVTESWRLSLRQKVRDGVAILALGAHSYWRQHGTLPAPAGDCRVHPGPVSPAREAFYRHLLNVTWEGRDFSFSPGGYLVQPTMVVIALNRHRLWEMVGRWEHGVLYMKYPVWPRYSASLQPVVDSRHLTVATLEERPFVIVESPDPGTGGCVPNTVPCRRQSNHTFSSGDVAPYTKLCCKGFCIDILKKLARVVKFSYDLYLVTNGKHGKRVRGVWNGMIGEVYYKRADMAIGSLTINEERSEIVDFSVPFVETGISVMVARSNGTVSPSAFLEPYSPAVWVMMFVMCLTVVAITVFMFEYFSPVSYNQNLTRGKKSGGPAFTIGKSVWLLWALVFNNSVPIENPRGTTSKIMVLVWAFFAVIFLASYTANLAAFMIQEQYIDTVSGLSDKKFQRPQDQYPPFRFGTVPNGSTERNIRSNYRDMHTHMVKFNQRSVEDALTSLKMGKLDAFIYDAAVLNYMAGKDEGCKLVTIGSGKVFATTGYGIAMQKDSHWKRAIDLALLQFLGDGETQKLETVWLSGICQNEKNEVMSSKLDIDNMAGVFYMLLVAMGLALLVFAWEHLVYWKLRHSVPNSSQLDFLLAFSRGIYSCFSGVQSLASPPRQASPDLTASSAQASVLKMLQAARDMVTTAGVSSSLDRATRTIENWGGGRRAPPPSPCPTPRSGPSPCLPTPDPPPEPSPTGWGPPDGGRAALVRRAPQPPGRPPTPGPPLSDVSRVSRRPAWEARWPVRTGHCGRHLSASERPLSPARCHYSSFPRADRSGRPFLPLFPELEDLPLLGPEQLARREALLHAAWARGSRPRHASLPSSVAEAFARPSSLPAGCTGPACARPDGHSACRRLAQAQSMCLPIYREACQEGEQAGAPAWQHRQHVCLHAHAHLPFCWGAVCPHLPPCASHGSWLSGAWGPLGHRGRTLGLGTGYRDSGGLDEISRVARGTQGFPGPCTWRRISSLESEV
UniProt O15399, whole entry, looked up: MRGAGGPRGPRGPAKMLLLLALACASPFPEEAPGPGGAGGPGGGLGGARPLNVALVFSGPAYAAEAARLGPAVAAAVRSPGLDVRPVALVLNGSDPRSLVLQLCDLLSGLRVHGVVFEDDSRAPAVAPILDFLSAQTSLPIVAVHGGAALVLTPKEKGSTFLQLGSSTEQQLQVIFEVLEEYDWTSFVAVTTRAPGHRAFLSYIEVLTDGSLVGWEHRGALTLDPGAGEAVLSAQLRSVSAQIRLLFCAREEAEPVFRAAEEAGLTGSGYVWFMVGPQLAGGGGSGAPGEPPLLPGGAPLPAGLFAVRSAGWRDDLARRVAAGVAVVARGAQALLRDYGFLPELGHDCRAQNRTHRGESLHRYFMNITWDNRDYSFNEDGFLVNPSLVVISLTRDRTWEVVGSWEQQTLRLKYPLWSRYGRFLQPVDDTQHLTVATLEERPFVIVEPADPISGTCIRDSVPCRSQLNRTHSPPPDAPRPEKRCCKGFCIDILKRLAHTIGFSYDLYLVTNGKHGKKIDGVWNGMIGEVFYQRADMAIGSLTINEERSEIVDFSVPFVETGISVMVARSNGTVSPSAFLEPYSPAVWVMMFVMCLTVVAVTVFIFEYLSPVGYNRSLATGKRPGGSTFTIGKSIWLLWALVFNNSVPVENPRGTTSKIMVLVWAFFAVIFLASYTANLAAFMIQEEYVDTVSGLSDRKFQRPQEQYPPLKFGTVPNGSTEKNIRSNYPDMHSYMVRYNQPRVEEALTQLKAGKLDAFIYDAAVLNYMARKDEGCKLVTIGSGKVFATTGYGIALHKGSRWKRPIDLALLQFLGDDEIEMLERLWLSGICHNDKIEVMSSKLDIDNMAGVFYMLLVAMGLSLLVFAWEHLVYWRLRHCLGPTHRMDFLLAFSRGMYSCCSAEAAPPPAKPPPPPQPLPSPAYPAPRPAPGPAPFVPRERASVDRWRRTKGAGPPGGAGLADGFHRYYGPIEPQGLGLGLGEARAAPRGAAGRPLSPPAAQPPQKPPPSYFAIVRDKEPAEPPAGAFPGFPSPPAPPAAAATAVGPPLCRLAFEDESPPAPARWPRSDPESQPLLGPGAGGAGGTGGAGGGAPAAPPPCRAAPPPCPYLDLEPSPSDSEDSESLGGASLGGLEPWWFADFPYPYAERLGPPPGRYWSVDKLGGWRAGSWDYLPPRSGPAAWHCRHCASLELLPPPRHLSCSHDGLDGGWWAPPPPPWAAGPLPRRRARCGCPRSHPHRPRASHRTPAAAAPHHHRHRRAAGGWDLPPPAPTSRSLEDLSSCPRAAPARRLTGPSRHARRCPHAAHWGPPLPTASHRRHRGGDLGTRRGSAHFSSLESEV

Assay [2] addresses T1, Glutamate NMDA receptor; GRIN1/GRIN2A. Nature of the assay: Deactivation of GluN1/GluN2A receptor (unknown origin) expressed in CHO cells assessed as time constant for signal decay at 1 uM preincubated followed by glutamate addition in presence of saturating glycine measured after glutamate removal by electrophysiology method. It is filed as cell-based.
Assay [3] concerns the target Ionotropic glutamate receptor NMDA 1/2C (Homo sapiens, UniProt Q05586+Q14957). Conditions: 125 uM.
The target of assay [4] is Ionotropic glutamate receptor NMDA 1/2D (Homo sapiens) (UniProt Q05586+O15399). The note with it: 125 uM.

With `N#C[C@@H]1C[C@H]1c1c(Cl)ccc2nc(Cn3nc(C(F)(F)F)cc3Cl)cc(=O)n12`, the figures for the Emax in assay [1], in assay [3] and in assay [4] were 136%, 243% and 140%, respectively. Moreover, the TIME in assay [2] amounted to 0.00088 h.

What is called Emax is the greatest response seen or fitted, relative to the assay's reference.

Values taken from ChEMBL document CHEMBL3870360, “GluN2A-Selective Pyridopyrimidinone Series of NMDAR Positive Allosteric Modulators with an Improved in Vivo Profile” (ACS Med Chem Lett, 2017).
